Counter-ions that a name gives are not always drawn.
Key:
[1] = target: δ receptors (Mus musculus, UniProt P32300); assay: opioid receptor binding in mouse brain homogenate, [3H]-Deltorphina; details: read-out: Affinity Ki towards opioid receptors, δ, mean ± SEM, n=3
[2] = target: μ receptors (Mus musculus, UniProt P42866); assay: opioid receptor binding in mouse brain homogenate, [3H]-DAMGO; details: read-out: Affinity Ki towards opioid receptors, μ, mean ± SEM, n=3
[3] = target: κ receptors (Mus musculus, UniProt P33534); assay: opioid receptor binding in mouse brain homogenate, [3H]-U69593; details: read-out: Affinity Ki towards opioid receptors, κ, [3H]-U69593, mean ± SEM, n=3

Protein sequences, listed by entry. Tags and fused reporters are not part of them.
UniProt P42866, whole entry: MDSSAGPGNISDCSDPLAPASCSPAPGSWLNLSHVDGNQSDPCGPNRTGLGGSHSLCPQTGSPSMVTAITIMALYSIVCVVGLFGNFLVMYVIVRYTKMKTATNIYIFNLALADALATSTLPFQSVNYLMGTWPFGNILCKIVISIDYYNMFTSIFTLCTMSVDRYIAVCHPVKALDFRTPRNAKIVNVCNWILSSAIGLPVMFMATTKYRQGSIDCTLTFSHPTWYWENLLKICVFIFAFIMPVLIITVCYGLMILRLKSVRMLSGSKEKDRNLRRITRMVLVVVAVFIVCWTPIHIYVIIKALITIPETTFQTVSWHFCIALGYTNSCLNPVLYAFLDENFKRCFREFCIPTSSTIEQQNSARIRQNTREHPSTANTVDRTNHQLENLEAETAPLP
UniProt P33534, whole entry: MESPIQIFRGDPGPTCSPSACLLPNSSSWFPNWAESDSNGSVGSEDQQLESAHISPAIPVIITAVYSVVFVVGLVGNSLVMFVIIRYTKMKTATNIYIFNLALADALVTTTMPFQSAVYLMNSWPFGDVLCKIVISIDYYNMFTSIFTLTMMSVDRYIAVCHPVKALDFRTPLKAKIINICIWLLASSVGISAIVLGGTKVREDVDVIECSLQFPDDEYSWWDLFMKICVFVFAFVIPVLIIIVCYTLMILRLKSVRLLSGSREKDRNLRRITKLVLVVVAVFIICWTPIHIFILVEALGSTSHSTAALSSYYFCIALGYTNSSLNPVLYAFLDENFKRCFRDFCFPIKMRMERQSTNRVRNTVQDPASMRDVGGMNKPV

| Structure (SMILES) | Ki [1] [µM] | Ki [2] [µM] | Ki [3] [µM] |
| --- | --- | --- | --- |
| CCC(=O)N1CC2CC(C1)N2C/C=C(\C)c1ccccc1 (as salt: hydrochloride) | > 5 | 0.178 | > 5 |
| CCC(=O)N1CC2CC(C1)N2C/C=C(\CC)c1ccccc1 (as salt: hydrochloride) | > 5 | 0.384 | > 5 |
